Results on 1 compound are retold here after US20030091998A1, “Association of beta2-adrenergic receptor haplotypes with drug response” (priority 2000, published 2003).

Structures are written as SMILES.

This test has as its system asthma patients. The test can be described thus: In vivo FEV1 (bronchodilator) response to albuterol in asthma patients, by β2AR haplotype pair. On the set-up: species or system human. To be noted: Caucasian asthma patients with β2AR haplotype pair 4/6; spirometry before and 30 min after inhalation of 180 μg albuterol by nebulization. On the procedure:
The patients in the asthma cohort were enrolled from an outpatient facility as described in detail elsewhere (Yan, L., Galinsky, R. E., Bernstein, J. A., Liggett, S. B. & Weinshilboum, R. M. (1999) Pharmacogenetics in Press). […] Forced expiratory volume in 1 second (FEV1) and forced vital capacity (FVC) were determined in triplicate. The predicted values for these measurements were calculated based on standard algorithms (Morris, J. F., Koski, A. & Johnson, L. C. (1971) Am Rev Respir Dis 103, 57-67).
The association between changes in % predicted FEV1 and haplotype pair was assessed by fitting an analysis of covariance model (ANCOVA) with terms for haplotype pair, sex and baseline severity. P-values from pairwise comparisons by haplotype pair were adjusted for multiple comparisons by applying the Holm-Sidak step-down procedure (Ludbrook, J. (1998) Clin and Exp Pharmacology & Physiology 25, 1032-1037.). […] In addition, the African-American asthma patients were excluded from the analysis due to the low number of individuals in this population group. […]
Pairwise tests were made while correcting for multiple comparisons. […] Since 0, 1 or 2 copies of these two haplotypes are present in our population as haplotype pairs 2/2, 2/4 and 4/4, a potential gene dose effect can be assessed by regression analysis.

Consider `CC(C)(C)NCC(O)c1ccc(O)c(CO)c1` (stereo not shown) [albuterol], for which the “change % FEV1 (change in % predicted FEV1)” value is on record as 19.1±2.79%.
